Test results taken from PMC7938888, “Antidepressant drugs act by directly binding to TRKB neurotrophin receptors” (Cell, 2021).

By UniProt entry, the sequences of proteins in these tests, tags left out. Residues count along the entry.
UniProt P15209, 32-821 limits assumed: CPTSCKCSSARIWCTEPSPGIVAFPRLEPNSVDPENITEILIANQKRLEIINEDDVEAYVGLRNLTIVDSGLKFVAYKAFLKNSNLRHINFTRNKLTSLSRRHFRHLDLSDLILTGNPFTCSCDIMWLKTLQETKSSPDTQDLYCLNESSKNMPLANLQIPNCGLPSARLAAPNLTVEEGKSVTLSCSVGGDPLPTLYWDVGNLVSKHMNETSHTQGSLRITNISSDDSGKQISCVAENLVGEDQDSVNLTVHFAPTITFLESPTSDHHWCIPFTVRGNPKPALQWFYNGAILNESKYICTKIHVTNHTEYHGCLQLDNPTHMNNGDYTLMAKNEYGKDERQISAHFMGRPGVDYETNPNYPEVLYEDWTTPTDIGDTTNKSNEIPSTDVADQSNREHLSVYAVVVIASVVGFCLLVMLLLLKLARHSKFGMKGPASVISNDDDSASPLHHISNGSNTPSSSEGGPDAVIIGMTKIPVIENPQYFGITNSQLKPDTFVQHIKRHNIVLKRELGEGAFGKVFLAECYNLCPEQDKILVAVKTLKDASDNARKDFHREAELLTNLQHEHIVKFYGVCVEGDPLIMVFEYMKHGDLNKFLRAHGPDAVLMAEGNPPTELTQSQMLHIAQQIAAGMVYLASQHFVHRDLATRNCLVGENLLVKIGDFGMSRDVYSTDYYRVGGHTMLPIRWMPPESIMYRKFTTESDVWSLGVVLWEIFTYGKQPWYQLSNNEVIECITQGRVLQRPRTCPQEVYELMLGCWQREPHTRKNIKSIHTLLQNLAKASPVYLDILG

Target: TRKB (Mus musculus, UniProt P15209)
Experiment: Cell-free ligand binding assay on immobilised TRKB from HEK293T lysates
Conditions: read-out: Kd of tritiated imipramine binding to TRKB; tritiated imipramine 0-30 μM, scintillation; tested as the radiolabelled form

Structure (SMILES): CN(C)CCCN1c2ccccc2CCc2ccccc21 [imipramine]
- Kd: 1430 nM
